Test results taken from ChEMBL document CHEMBL4673259, “Discovery of isoquinolinone and naphthyridinone-based inhibitors of poly(ADP-ribose) polymerase-1 (PARP1) as anticancer agents: Structure activity relationship and preclinical characterization” (Bioorg Med Chem, 2020).

Species on record: Homo sapiens
Test: Selectivity index, ratio of IC50 for inhibition of N-terminal GST-tagged human PARP2 (2 to 583 residues) expressed in baculovirus infected Sf9 cells to IC50 for inhibition of N-terminal GST-tagged human full length PARP1 (2 to 1041 residues) expressed in baculovirus infected Sf9 cells

`N#Cc1ccc(N2CCN([C@H]3C=C(c4cc5ncccc5c(=O)[nH]4)CC3)CC2)cc1` showed a Ratio IC50 of 7.4.
